# In patent US12233115B2, “Long-acting parathyroid hormone” (Extend Biosciences, Inc., priority 2022, dated 2025):
# System: Thyroparathyroidectomized (TPTx) rats
# Assay: 28-day pharmacodynamic study in thyroparathyroidectomized (TPTx) rats
# Assay type: in vivo, rat
# Settings: 10 nmol/kg SC daily, Days 12, 27, relative to TPTx/vehicle
# Text: 28-day Pharmacodynamic Study of EXT607 in TPTx Rats. Thyroparathyroidectomized (TPTx) rats are a model for hypoparathyroidism. To produce TPTx rats, the thyroid and parathyroid glands were surgically resected and the rats were given L-thyroxine to compensate for the loss of their thyroid. Due to the absence of PTH, TPTx rats had lower levels of serum calcium and higher levels of serum phosphate.
# Each group consisted of 10 female rats split into two cohorts of 5 animals for blood sampling purposes. On days 1, 12, and 27, blood (˜0.2 ml) was collected into serum separation tubes at t=0 (pre-dose), 2, 6, 10, and 24 h. The samples were processed into serum by standard methods and analyzed for serum total calcium and phosphate.
# Calcium levels at 3 and 10 nmol/kg (20 and 60 μg/kg) were at or just below the normal range of calcium levels for healthy animals. […] For each timepoint, the percent increase in serum calcium relative to the TPTx vehicle control group (Group 2) was determined and daily averages were calculated (Table 9B). Over the three days sampled (Days 1, 12, and 27), […] increased serum calcium an average of 17, 28, and 37% at 1, 3, and 10 nmol/kg, respectively.
# At each timepoint, the percent decrease in serum phosphate relative to the TPTx vehicle control group (Group 2) was determined, and daily averages were calculated (Table 9C).
smiles,measurement,value
CC[C@H](C)[C@H](NC(=O)[C@H](CCC(=O)O)NC(=O)[C@H](CO)NC(=O)[C@@H](NC(=O)[C@@H](N)CO)C(C)C)C(=O)N[C@@H](CCC(N)=O)C(=O)N[C@@H](CC(C)C)C(=O)N[C@@H](CCSC)C(=O)N[C@@H](Cc1c[nH]cn1)C(=O)N[C@@H](CC(N)=O)C(=O)N[C@@H](CC(C)C)C(=O)NCC(=O)N[C@@H](CCCCN)C(=O)N[C@@H](Cc1c[nH]cn1)C(=O)N[C@@H](CC(C)C)C(=O)N[C@@H](CC(N)=O)C(=O)N[C@@H](CO)C(=O)N[C@@H](CCSC)C(=O)N[C@@H](CCC(=O)O)C(=O)N[C@@H](CCCNC(=N)N)C(=O)N[C@H](C(=O)N[C@@H](CCC(=O)O)C(=O)N[C@@H](Cc1c[nH]c2ccccc12)C(=O)N[C@@H](CC(C)C)C(=O)N[C@@H](CCCNC(=N)N)C(=O)N[C@@H](CCCCN)C(=O)N[C@@H](CCCCN)C(=O)N[C@@H](CC(C)C)C(=O)N[C@@H](CCC(N)=O)C(=O)N[C@@H](CC(=O)O)C(=O)N[C@H](C(=O)N[C@@H](Cc1c[nH]cn1)C(=O)N[C@@H](CC(N)=O)C(=O)N[C@@H](Cc1ccccc1)C(=O)O)C(C)C)C(C)C [PTH(1-34)],"% Decrease in Serum Phosphate, Combined",11%
